Test results reported in patent US20240140952A1, “INHIBITORS AND DEGRADERS OF JANUS KINASE 2” (H. LEE MOFFITT CANCER CENTER AND RESEARCH INSTITUTE, INC., priority 2021, published 2024).

By UniProt entry, the sequences of proteins in these tests, tags left out. Where a name states a change or a piece, a line headed by the entry shows the natural chain unless it says otherwise.
UniProt O60674: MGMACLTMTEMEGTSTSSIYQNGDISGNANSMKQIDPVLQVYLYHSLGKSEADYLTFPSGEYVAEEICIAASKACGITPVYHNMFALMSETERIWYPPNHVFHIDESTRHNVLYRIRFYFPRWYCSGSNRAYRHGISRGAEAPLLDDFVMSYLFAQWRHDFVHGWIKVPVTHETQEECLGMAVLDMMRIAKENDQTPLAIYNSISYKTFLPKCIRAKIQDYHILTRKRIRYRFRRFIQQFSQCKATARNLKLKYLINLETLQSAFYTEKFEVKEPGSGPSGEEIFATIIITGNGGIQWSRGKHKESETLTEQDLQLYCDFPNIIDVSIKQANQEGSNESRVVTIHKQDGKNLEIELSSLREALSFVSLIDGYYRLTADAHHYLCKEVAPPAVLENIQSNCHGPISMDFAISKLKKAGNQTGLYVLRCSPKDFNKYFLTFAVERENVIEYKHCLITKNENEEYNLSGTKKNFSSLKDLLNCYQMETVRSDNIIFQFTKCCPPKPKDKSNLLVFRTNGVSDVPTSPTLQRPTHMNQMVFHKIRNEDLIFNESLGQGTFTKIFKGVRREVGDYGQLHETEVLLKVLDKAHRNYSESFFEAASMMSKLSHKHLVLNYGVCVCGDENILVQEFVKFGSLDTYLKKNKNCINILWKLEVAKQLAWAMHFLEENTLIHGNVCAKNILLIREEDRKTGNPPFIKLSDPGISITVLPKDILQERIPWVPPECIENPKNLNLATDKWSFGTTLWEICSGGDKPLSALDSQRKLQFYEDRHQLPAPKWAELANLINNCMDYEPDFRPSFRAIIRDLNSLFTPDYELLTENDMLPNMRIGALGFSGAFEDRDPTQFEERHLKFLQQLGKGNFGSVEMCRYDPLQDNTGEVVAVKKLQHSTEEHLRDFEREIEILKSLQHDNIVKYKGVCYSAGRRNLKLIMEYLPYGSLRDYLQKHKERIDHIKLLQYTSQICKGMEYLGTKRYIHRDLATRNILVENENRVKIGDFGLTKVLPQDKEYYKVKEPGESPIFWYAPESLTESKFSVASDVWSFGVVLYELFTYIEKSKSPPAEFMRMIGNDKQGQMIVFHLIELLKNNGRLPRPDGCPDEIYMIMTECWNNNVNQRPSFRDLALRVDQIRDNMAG

Biological target: JAK2 (Homo sapiens (Human), UniProt O60674)
Test: Radiometric assay of enzymatic JAK2 activity by Reaction Biology Corp.
Conditions: read-out: Biochemical inhibition IC50

CCS(=O)(=O)N1CC(CC#N)(n2cc(-c3ncnc4[nH]ccc34)cn2)C1 [Baricitinib, reference compound] was tested, and the IC50 was 290 ± 130 pM.
